Laboratory results reported in publication PMC6385310 (Scientific Reports, 2019).

Chains of the proteins cited; added tags and fusions are not shown. Lines headed by an entry give the natural chain unless they say otherwise; changes in a name come on top.
UniProt P06401: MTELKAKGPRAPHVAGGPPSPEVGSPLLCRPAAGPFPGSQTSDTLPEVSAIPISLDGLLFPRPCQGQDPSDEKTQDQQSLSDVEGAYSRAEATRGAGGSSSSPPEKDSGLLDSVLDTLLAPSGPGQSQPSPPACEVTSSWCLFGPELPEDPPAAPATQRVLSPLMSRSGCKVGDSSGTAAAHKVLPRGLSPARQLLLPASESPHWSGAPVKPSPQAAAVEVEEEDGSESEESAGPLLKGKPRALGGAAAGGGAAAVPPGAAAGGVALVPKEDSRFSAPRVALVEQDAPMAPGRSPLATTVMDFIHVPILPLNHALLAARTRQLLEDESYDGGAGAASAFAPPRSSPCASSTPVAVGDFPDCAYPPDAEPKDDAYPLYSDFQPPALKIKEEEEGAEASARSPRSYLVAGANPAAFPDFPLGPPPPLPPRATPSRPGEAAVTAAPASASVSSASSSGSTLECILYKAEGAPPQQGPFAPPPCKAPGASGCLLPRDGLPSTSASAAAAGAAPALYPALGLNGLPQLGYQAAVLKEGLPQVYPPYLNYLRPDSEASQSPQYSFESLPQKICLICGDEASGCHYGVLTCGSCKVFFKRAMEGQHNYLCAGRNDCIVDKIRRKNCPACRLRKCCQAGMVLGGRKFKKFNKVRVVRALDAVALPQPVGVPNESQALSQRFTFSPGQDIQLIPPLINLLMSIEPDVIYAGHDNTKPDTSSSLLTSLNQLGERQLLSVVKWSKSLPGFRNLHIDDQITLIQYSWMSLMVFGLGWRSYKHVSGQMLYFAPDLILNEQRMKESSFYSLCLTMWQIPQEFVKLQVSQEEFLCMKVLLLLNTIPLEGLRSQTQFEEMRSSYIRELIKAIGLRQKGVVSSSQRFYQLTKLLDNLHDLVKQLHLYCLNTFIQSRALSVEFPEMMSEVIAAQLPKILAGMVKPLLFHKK

Target: progesterone receptor (PR) (Homo sapiens, UniProt P06401)
Assay: PR antagonism in T-47D cells, qRT-PCR of ORG2058-induced FKBP54 and S100P
Settings: 10 nM ORG2058, 24 h; for PR antagonism: inhibition of ORG2058-induced up-regulation of S100P and FKBP54: increasing concentrations of compound; for PR agonist activity: increased expression of S100P and FKBP54: lower concentrations of compound

Compound | PR antagonism: inhibition of ORG2058-induced up-regulation of S100P and FKBP54 | PR agonist activity: increased expression of S100P and FKBP54
CC#C[C@]1(O)CC[C@H]2[C@@H]3CCC4=CC(=O)CCC4=C3[C@@H](c3ccc(N(C)C)cc3)C[C@@]21C [Compound 1, mifepristone, reference compound] | strongly inhibited ORG2058-induced up-regulation of S100P and FKBP54 at 100 nM | no detectable PR agonistic activity
CN(C)c1ccc([C@H]2C[C@@]3(C)[C@@H](CC[C@@]3(O)C#C[Si](C)(C)C)[C@@H]3CCC4=CC(=O)CCC4=C32)cc1 [Compound 33] | reduced PR antagonism, requiring 1 uM for activity | –
COc1ccc(C#C[C@]2(O)CC[C@H]3[C@@H]4CC[C@@]5(O)CC6(CCC5=C4[C@@H](c4ccc(N(C)C)cc4)C[C@@]32C)OCCO6)cc1 [Compound 37] | inhibition of S100P and FKBP54 only occurring at 1 µM | –
COc1ccc(C#C[C@]2(O)CC[C@H]3[C@@H]4CCC5=CC(=O)CCC5=C4[C@@H](c4ccc(N(C)C)cc4)C[C@@]32C)cc1 [Compound 39] | maximal antagonism of S100P and FKBP54 evident at 10 nM | no detectable PR agonistic activity
